In assay [1] the target is KCa1.1 channels from rat skeletal muscle (Rattus norvegicus, UniProt Q62976). As to the kind of experiment: Single-channel recording of KCa1.1 channels in planar lipid bilayers. It counts as biochemical. The method in brief: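 Single-channel recording of rat skeletal muscle KCa1.1 in planar lipid bilayers. Both sides held 200 mM KCl, 10 mM Mops-KOH, pH 7.4. The intracellular side added 0.2 mM CaCl2; the extracellular side added 0.1 mM EDTA and 0.1 mg mL−1 BSA. Sides were assigned by the channel's native asymmetry.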

By UniProt entry, the sequences of proteins in these tests, tags left out. Where a name states a change or a piece, a line headed by the entry shows the natural chain unless it says otherwise.
UniProt Q62976: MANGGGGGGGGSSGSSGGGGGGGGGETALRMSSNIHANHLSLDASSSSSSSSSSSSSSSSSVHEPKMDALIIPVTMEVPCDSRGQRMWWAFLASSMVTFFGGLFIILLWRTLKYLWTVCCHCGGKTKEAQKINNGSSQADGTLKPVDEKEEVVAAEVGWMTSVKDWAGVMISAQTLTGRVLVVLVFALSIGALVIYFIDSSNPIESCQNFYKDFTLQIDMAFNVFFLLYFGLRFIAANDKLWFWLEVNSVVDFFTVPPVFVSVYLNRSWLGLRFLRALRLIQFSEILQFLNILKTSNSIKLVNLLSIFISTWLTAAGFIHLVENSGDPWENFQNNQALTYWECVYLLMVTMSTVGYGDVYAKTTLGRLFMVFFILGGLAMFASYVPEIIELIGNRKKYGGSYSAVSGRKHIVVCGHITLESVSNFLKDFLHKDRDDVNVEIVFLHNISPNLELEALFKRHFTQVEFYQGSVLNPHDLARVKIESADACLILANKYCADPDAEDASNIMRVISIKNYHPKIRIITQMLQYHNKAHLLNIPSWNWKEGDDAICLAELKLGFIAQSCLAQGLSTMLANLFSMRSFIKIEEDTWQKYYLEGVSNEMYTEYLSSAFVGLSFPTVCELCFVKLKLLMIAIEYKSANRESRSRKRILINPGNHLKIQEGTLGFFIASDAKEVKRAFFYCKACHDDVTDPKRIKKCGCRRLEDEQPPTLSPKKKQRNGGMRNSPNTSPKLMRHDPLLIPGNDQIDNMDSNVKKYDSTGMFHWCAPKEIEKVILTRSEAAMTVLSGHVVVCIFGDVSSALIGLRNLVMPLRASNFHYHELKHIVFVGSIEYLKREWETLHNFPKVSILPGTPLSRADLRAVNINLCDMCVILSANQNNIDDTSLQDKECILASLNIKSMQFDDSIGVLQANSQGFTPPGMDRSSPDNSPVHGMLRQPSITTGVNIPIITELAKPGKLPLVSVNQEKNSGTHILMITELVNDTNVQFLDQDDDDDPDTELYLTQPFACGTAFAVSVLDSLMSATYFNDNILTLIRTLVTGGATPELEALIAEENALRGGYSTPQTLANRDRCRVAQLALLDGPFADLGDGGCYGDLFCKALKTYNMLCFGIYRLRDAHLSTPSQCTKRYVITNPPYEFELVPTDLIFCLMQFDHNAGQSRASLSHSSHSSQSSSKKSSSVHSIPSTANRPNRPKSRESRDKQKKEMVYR
UniProt Q12791: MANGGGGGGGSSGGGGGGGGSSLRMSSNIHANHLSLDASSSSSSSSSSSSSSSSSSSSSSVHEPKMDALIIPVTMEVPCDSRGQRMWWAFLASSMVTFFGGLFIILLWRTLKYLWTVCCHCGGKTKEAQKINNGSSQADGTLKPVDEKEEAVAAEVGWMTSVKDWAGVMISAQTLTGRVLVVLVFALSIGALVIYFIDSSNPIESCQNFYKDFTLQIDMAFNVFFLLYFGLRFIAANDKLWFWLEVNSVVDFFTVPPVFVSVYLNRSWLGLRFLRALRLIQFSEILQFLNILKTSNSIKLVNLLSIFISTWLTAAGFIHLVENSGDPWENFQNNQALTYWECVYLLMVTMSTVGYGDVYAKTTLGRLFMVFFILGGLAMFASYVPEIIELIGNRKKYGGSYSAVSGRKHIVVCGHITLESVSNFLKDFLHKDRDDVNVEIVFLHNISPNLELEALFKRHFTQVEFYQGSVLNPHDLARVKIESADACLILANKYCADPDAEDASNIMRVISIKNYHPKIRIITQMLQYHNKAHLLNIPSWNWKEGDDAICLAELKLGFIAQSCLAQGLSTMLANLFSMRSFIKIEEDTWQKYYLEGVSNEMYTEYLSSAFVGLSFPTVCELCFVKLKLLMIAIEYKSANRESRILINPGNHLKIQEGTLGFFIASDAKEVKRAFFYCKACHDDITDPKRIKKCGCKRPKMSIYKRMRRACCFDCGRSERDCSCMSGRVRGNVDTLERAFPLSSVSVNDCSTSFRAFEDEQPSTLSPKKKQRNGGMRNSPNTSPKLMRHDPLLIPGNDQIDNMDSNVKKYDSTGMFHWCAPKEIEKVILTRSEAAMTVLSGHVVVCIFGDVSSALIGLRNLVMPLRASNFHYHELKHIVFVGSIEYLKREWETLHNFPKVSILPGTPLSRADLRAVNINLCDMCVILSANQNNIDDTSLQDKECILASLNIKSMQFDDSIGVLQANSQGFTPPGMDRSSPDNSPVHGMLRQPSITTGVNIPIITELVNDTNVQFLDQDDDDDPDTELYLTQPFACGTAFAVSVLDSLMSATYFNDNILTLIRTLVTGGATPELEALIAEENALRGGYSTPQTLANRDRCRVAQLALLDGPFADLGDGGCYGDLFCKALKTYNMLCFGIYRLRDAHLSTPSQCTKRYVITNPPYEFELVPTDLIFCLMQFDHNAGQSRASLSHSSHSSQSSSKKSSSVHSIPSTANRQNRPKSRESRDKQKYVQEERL

Assay [2] deals with human KCa1.1 channel (HSlo) (Homo sapiens, UniProt Q12791). Nature of the assay: Whole-cell patch clamp inhibition of cloned human KCa1.1. The format is cell-based. The method in brief:
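Whole-cell clamp of HEK293 stably expressing N-terminal Flag-tagged human HSlo. Pipette: KCl/EGTA/Hepes-KOH pH 7.2, 0.5 μM free Ca2+. Bath: NaCl-based pH 7.4. Steps from −80 mV to +100 mV (+10 mV, 100 ms), 5 kHz filter, P/5 leak correction, paxilline-resistant current subtracted. Toxin (50 nM) gravity-perfused; −80→+50 mV pulses every 10 s tracked onset/washout. KI from one-site fit; Kd from kinetic ratio.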
(In general: The patch-clamp technique gives a direct electrical read-out from membranes.)

Take `CSCC[C@@H]1NC(=O)[C@@H]2CSSC[C@H](NC(=O)[C@H](CC(=O)O)NC(=O)[C@@H](NC(=O)[C@H](CC(=O)O)NC(=O)[C@@H](NC(=O)[C@H](Cc3ccccc3)NC(=O)[C@@H]3CCC(=O)N3)[C@@H](C)O)C(C)C)C(=O)N[C@@H](CO)C(=O)N[C@@H](C(C)C)C(=O)N[C@@H](CO)C(=O)N[C@@H](CCCCN)C(=O)N[C@@H](CCC(=O)O)C(=O)N[C@H]3CSSC[C@H](NC(=O)[C@H](CCCCN)NC(=O)[C@H](CCCCN)NC(=O)CNC1=O)C(=O)N[C@@H](CCCNC(=N)N)C(=O)N[C@H](C(=O)N[C@@H](Cc1ccc(O)cc1)C(=O)N[C@@H](CCC(N)=O)C(=O)O)CSSC[C@H](NC(=O)[C@H](C(C)C)NC(=O)[C@H](CO)NC(=O)[C@H](Cc1c[nH]c4ccccc14)NC3=O)C(=O)N[C@@H](CCCCN)C(=O)N[C@@H](CSCNC(C)=O)C(=O)N[C@@H](CC(C)C)C(=O)N[C@@H](Cc1ccccc1)C(=O)NCC(=O)N[C@@H](C(C)C)C(=O)N[C@@H](CC(=O)O)C(=O)N[C@@H](CCCNC(=N)N)C(=O)NCC(=O)N[C@@H](CCCCN)C(=O)N2` [IbTx-D19C-Acm]: the “channel block behaviour of single BKCa channels” value in assay [1] (single channel, lipid bilayer, data not shown) is “characteristic discrete long-lived blocked states”. The “potency and selectivity towards KCa 1.1” value in assay [1] (summary statement, Table 1, this work and ref [2]) is “retain potency and selectivity towards KCa 1.1”.
By Kd is commonly meant a measure of binding affinity in units of concentration. In general, inhibition refers to the relative decrease from the control value, in per cent. Take `COc1ccc(CSC[C@@H]2NC(=O)[C@H](CCCCN)NC(=O)[C@@H]3CSSC[C@@H](C(=O)N[C@@H](Cc4ccc(O)cc4)C(=O)N[C@@H](CCC(N)=O)C(=O)O)NC(=O)[C@H](CCCNC(=N)N)NC(=O)[C@@H]4CSSC[C@H](NC(=O)[C@H](CCC(=O)O)NC(=O)[C@H](CCCCN)NC(=O)[C@H](CO)NC(=O)[C@H](C(C)C)NC(=O)[C@H](CO)NC(=O)[C@@H](NC(=O)[C@H](CC(=O)O)NC(=O)[C@@H](NC(=O)[C@H](CC(=O)O)NC(=O)[C@@H](NC(=O)[C@H](Cc5ccccc5)NC(=O)[C@@H]5CCC(=O)N5)[C@@H](C)O)C(C)C)CSSC[C@H](NC(=O)[C@H](CCCCN)NC(=O)CNC(=O)[C@H](CCCNC(=N)N)NC(=O)[C@H](CC(=O)O)NC(=O)[C@H](C(C)C)NC(=O)CNC(=O)[C@H](Cc5ccccc5)NC(=O)[C@H](CC(C)C)NC2=O)C(=O)N[C@@H](CCSC)C(=O)NCC(=O)N[C@@H](CCCCN)C(=O)N[C@@H](CCCCN)C(=O)N4)C(=O)N[C@@H](Cc2c[nH]c4ccccc24)C(=O)N[C@@H](CO)C(=O)N[C@@H](C)C(=O)N3)cc1` [Lig-IbTx-MeOBzl, native chemical ligated iberiotoxin-V16A/D19C-4-MeOBzl]: the dissociation constant Kd in assay [2] was determined as 1.9 nM. Also, the inhibition at 0.05 µM in assay [2] (read-out: inhibition of HSlo current) is at least 80%. Further, the “affinity / dissociation rate in words” value in assay [2] (whole-cell patch clamp, human KCa1.1, listed as iberiotoxin V16A/D19-Cys-4-MeOBzl) is “‘native-like’ affinity”.

For the origin of these results see publication PMC2998342 (Peptides, 2009).
